Reference: patent US9918964B2, “Reducing platelet activation, aggregation and platelet-stimulated thrombosis or blood coagulation by reducing mitochondrial respiration” (priority 2010, dated 2018)

System: platelets in whole blood
Test: Platelet function testing with the Hemostasis Mechanism Analyzer (HMA): clumping, sticking, clotting in whole blood
Type: cell-based, human
Details: 0 dosage = 100

n1nc(-c2nn[nH]n2)n[nH]1
% clot time increase (Dosage (mg/ml) 0.67): 108%
% clump time increase (Dosage (mg/ml) 0.67): 110%
% stick time increase (Dosage (mg/ml) 0.67): 114%
% clot time increase (Dosage (mg/ml) 2): 128%
% clump time increase (Dosage (mg/ml) 2): 145%
% stick time increase (Dosage (mg/ml) 2): 157%
% clot time increase (Dosage (mg/ml) 2.7): 145%
% clump time increase (Dosage (mg/ml) 2.7): 255%
% stick time increase (Dosage (mg/ml) 2.7): 225%
% clot time increase (Dosage (mg/ml) 3.3): 190%
% clump time increase (Dosage (mg/ml) 3.3): 441%
% stick time increase (Dosage (mg/ml) 3.3): 413%
% clot time increase (Dosage (mg/ml) 5): 542%
% clump time increase (Dosage (mg/ml) 5): 2293%
% stick time increase (Dosage (mg/ml) 5): 1852%

This is a selection: effects in other tests are not listed, and their absence says nothing.
